Test results published in paper PMC8812549 (Journal of medicinal chemistry, 2021).

Details: mice, 1 mg/kg, course of the study

Cc1ccc([C@H]2C[C@H](N(Cc3ccc(Br)c(Cl)c3)C3CCNCC3)C2)cc1 [77b]
observed toxicity: no observed toxicity
